Source: ChEMBL document CHEMBL6078633, “Covalent Inhibitors of S100A4 Block the Formation of a Pro-Metastasis Non-Muscle Myosin 2A Complex” (J Med Chem, 2024)

Chains of the proteins cited; added tags and fusions are not shown. Lines headed by an entry give the natural chain unless they say otherwise; changes in a name come on top.
UniProt P26447: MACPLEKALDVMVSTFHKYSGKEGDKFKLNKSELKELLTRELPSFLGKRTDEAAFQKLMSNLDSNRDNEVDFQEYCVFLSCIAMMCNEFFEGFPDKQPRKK

Tests used:
[1] = Inhibition of S100A4-NMII interaction (unknown origin) by HTRF analysis; design: species or system Homo sapiens
Procedure, shortened: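 TR-FRET peptide-displacement assays run in parallel: S100A4 with MPN (NMII-mimicking) peptide, and S100A11 with AnII-mimicking peptide, both with 1 mM calcium. Duplicate dose-response in two independent experiments; top concentration 100 μM or 48.75 μM depending on series. IC50 fitted from percentage inhibition against solvent controls.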

Protein S100-A4 = Protein S100-A4 (Homo sapiens, UniProt P26447)

SMILES | pIC50 [1] | Kobs (Protein S100-A4)
O=C(NC1CCCc2ccccc21)[C@H]1C[C@H](c2ccccc2)CN1C(=O)CCl (some centres not stated) | 6.42 | 
O=C(Nc1cccc(Cl)c1)[C@H]1C[C@H](c2ccccc2)CN1C(=O)CCl |  | 22 10^-4/s

pIC50: −log10 of the molar value.
